The target in assay [1] is T1, GIPR Y73H (Homo sapiens, UniProt P48546, Y73H).
T1 sequence (P48546 22-466 Y73H): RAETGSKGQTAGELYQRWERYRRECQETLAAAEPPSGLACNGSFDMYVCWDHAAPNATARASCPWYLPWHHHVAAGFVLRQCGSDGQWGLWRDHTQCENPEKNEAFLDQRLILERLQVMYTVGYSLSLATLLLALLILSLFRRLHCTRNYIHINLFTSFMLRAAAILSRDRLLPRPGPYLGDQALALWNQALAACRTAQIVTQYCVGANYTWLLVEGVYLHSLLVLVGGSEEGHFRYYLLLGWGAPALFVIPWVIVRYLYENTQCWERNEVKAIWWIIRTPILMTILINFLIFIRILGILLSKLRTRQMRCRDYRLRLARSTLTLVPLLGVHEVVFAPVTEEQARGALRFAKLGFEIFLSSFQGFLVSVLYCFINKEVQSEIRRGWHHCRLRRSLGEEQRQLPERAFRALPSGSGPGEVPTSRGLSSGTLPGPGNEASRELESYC
To be noted: GIPR Y73H (ECD), mean, n = 5, duplicate.

Assay [2] has as its target T2, GIPR E288G (Homo sapiens, UniProt P48546, E288G).
T2 sequence (P48546 22-466 E288G): T1 sequence (P48546 22-466 Y73H) with H52Y, E267G
To be noted: HEK293A, 1 µM GIP minus vehicle, n = 4, P = 0.7001.

The target in assay [3] is T3, GIPR R38L (Homo sapiens, UniProt P48546, R38L).
T3 sequence (P48546 22-466 R38L): T1 sequence (P48546 22-466 Y73H) with R17L, H52Y
To be noted: GIPR R38L (ECD), mean, n = 5, duplicate.

In assay [4] the target is T4, GIPR L304R (Homo sapiens, UniProt P48546, L304R).
T4 sequence (P48546 22-466 L304R): T1 sequence (P48546 22-466 Y73H) with H52Y, L283R
The experiment in a line: cAMP accumulation. It counts as cell-based. The arrangement: host or cells: HEK293. In general terms: Changes in cAMP serve as a functional read-out for many G protein-coupled receptors.

Assay [5] addresses T5, GIPR V399M (Homo sapiens, UniProt P48546, V399M).
T5 construct: host or cells: HEK293
Description: cAMP accumulation. It counts as cell-based.

The target in assay [6] is T6, GIPR V99I (Homo sapiens, UniProt P48546, V99I).
T6 sequence (P48546 22-466 V99I): T1 sequence (P48546 22-466 Y73H) with H52Y, V78I
Description: cAMP accumulation. It counts as cell-based. More on the design: host or cells: HEK293.

Positions count from the first letter of the chain named.

The record followed here is paper PMC11272584 (Nature Metabolism, 2024).

Regarding “glucose-dependent insulinotropic polypeptide [GIP]”, the “logEC50 (Arrestin)” value in assay [1] (Hill slope 1.0) was -9.1; in assay [3] (Hill slope 1.0) it was -9.0. For the same substance, the “Arrestin (Emax)” value in assay [1] (normalized to WT GIPR) was determined as 132; in assay [3] (normalized to WT GIPR), 82. The “Mean of ΔBRET” value in assay [2] came to 0.0045. Also, the “cAMP (Emax)” value in assay [4] (HEK293, GIP(1–42) 1 pM–100 nM, 30 min 37 °C, mean of n = 7) is given as 37 % of WT GIPR activity; in assay [5] (HEK293, GIP(1–42) 1 pM–100 nM, 30 min 37 °C, mean of n = 3) it was 147 % of WT GIPR activity; in assay [6] (HEK293, GIP(1–42) 1 pM–100 nM, 30 min 37 °C, mean of n = 4), 15 % of WT GIPR activity. In addition, the “logEC50 (cAMP)” value in assay [4] (HEK293, Hill slope 1.0, mean of n = 7) is -10.1; in assay [5] (HEK293, Hill slope 1.0, mean of n = 3) it was -9.3; in assay [6] (HEK293, Hill slope 1.0, mean of n = 4), -9.2.
